One assay addresses mouse Btk (Mus musculus, UniProt P35991). Briefly: Competition for probe labeling in isolated mouse splenocytes. The class given is cell-based. As to conditions: splenocytes pre-incubated with inhibitor, then 1 μM Compound 3.
Assay [1] has as its system intracellular calcium mobilization in Ramos cells following B cell receptor activation. Briefly: Calcium flux assay in Ramos B-cells stimulated with anti-human IgM. As to conditions: read-out: IC50 Ca2+ flux (calcium mobilization), anti-IgM stimulation.
The target in another assay is c-met (Homo sapiens, UniProt P08581). Briefly: TR-FRET kinase assay, c-met. The assay is classed as biochemical. To be noted: read-out: IC50 c-met; ATP at Km. The protocol: (§1) Kinase activity for Btk, Abl, c-met, ITK, LCK, and EGFR was determined using a time-resolved fluorescence resonance energy transfer (TR-FRET) methodology. Measurements were performed in a reaction volume of 50 μl using 96-well assay plates. […] The reaction was quenched by the addition of 1.2 equivalents of EDTA (relative to divalent cation) in 25 μL of 1× Lance buffer (Perkin-Elmer). Streptavidin-APC (Perkin-Elmer) and Eu-labeled p-Tyr100 antibody (Perkin-Elmer) in 1× Lance buffer were added in a 25 μL volume to give final concentrations of 100 nM and 2.5 nM, respectively, and the mixture was allowed to incubate for one hour. The TR-FRET signal was measured on a multimode plate reader with an excitation wavelength of 330 nm and detection wavelengths of 615 and 665 nm. Activity was determined by the ratio of the fluorescence at 665 nm to that at 615 nm. For each compound, enzyme activity was measured at various concentrations of compound. Negative control reactions were performed in the absence of inhibitor in replicates of six, and two no-enzyme controls were used to determine baseline fluorescence levels. Inhibition constants {Ki(app)} were obtained using the program BatchKi (23). […]; for all kinases, [ATP]=KmATP, [Btk]total=0.5 nM and [Lck]total=6 nM.

Chains of the proteins cited; added tags and fusions are not shown. Residues count along the entry.
UniProt P35991, whole entry: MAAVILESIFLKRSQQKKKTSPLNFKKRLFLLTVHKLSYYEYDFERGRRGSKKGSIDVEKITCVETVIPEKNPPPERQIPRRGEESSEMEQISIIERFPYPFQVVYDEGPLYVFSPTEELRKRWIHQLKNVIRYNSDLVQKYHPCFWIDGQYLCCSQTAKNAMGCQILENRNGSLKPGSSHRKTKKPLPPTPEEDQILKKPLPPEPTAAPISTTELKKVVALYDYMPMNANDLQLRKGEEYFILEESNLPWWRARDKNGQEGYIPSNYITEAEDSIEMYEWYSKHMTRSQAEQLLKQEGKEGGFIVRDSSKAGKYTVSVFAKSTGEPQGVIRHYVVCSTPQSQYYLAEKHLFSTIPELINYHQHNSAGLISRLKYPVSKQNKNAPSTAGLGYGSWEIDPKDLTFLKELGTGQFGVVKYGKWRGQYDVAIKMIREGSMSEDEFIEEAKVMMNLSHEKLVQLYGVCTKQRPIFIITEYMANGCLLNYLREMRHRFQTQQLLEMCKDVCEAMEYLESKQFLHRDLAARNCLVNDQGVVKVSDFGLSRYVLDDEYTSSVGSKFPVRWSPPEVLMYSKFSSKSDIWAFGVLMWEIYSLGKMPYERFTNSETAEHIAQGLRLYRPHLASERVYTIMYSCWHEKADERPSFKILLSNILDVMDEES
UniProt P08581, 25-1390 limits assumed: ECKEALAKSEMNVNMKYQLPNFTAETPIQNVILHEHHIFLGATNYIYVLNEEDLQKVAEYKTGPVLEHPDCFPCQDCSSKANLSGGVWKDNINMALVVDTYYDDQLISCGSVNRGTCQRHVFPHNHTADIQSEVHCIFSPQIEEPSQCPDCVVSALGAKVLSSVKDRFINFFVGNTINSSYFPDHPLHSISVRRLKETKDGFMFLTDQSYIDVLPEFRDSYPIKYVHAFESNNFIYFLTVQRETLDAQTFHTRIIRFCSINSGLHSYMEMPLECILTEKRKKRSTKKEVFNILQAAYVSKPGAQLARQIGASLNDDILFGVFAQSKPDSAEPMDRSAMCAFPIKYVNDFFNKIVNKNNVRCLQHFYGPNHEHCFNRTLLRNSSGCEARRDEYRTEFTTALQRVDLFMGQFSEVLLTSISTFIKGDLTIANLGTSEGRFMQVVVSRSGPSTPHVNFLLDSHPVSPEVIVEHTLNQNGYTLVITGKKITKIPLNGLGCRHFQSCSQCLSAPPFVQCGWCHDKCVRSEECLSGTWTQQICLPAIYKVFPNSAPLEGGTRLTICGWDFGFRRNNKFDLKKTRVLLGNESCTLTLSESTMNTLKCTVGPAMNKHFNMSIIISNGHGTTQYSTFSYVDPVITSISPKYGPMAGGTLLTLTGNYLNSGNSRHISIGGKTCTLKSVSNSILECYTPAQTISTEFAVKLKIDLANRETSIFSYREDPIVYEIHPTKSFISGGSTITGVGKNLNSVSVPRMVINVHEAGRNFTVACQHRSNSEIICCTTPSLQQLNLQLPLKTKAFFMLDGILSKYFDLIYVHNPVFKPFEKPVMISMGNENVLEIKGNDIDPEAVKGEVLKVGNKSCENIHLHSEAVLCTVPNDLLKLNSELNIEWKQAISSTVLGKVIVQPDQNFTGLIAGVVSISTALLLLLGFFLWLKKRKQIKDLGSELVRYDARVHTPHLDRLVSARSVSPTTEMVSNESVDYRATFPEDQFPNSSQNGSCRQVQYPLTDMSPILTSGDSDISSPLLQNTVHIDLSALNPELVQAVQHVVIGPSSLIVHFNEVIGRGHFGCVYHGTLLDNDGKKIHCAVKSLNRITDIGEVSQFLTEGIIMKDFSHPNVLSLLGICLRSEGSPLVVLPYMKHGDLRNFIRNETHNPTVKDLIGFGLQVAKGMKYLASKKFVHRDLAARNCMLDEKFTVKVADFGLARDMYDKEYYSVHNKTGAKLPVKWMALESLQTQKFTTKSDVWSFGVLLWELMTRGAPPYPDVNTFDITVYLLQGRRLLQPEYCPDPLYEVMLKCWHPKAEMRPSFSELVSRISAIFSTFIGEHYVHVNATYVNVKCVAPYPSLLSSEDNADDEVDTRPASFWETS
UniProt Q06187, whole entry: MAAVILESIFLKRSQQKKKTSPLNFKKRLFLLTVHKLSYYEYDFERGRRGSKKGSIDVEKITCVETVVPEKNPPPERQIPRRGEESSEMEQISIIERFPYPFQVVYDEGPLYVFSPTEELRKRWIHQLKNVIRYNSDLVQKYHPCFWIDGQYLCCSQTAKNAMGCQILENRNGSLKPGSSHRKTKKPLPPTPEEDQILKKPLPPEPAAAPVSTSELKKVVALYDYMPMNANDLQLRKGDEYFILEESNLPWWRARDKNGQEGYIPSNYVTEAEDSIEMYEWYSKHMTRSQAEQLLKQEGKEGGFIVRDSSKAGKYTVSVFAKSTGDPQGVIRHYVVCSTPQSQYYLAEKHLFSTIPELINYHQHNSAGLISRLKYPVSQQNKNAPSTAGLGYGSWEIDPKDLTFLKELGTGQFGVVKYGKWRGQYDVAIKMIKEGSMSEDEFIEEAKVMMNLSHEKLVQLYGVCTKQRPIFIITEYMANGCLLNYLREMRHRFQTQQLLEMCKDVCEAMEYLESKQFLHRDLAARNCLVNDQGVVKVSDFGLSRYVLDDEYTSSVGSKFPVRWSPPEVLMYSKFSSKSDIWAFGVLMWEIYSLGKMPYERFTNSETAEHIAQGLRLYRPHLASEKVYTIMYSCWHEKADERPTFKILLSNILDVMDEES
UniProt P06239, whole entry: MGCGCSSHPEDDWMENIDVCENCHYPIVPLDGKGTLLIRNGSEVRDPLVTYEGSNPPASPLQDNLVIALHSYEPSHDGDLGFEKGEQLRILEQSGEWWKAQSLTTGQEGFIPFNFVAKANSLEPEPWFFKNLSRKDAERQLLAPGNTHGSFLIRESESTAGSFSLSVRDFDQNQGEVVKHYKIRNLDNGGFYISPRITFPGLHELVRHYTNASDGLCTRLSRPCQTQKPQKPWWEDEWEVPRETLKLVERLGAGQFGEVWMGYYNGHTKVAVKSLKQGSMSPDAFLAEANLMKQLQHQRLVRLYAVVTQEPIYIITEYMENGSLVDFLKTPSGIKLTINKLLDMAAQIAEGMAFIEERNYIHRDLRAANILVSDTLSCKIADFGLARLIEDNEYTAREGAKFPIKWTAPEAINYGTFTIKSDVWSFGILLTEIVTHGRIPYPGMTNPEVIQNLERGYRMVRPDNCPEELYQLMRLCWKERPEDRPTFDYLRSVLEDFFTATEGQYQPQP
UniProt P00519, whole entry: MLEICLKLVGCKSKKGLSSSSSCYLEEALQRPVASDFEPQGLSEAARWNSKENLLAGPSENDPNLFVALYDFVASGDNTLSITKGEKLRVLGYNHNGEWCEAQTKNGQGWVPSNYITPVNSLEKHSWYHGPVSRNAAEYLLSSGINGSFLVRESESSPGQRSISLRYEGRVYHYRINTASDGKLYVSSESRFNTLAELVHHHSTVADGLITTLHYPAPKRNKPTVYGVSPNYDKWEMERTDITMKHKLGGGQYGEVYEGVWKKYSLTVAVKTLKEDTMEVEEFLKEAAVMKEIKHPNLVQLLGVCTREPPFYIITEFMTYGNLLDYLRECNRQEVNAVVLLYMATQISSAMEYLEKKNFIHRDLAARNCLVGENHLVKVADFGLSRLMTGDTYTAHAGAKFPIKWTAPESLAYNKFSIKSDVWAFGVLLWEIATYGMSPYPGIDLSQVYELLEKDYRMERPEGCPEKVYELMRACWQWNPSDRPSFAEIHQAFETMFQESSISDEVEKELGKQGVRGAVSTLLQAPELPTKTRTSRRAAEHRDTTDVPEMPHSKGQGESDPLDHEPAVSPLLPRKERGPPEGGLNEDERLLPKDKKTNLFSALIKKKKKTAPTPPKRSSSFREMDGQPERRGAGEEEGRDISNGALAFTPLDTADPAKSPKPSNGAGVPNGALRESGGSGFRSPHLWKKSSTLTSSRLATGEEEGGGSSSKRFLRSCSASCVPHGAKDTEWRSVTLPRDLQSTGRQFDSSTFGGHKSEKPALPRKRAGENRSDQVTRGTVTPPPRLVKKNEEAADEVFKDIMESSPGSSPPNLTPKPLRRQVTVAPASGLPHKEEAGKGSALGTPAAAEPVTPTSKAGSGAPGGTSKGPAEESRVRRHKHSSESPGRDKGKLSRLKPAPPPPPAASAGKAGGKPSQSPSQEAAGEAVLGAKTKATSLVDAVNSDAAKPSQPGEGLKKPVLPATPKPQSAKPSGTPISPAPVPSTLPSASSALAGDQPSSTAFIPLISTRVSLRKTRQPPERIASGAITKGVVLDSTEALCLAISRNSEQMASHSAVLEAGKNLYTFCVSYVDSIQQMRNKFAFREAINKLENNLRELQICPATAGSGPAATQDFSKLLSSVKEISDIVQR

In another assay the target is Btk (Homo sapiens, UniProt Q06187). Nature of the assay: TR-FRET kinase assay, Btk. The assay is classed as biochemical. As to conditions: read-out: IC50 Btk; ATP at Km. The protocol: as §1
A further assay addresses Lck (Homo sapiens, UniProt P06239). Nature of the assay: TR-FRET kinase assay, Lck. The class given is biochemical. To be noted: read-out: IC50 Lck; ATP at Km.
For another assay, the target named is Abl (Homo sapiens, UniProt P00519). Briefly: TR-FRET kinase assay, Abl. The assay is classed as biochemical. As to conditions: read-out: IC50 Abl; ATP at Km.

Consider `Nc1ncnc2c1c(-c1ccc(Oc3ccccc3)cc1)nn2C1CCOCC1`, for which, at mouse Btk, the “Competition for labeling of the 70 kD band (mouse Btk)” value was “effectively competed away”. The IC50 in assay [1] was 620 nM; at c-met it was 82000 nM; at Btk, 31 nM; on Lck, 10 nM; at Abl it was 810 nM.

(Values after patent publication US8987233B2, “Bruton's tyrosine kinase activity probe and method of using” (Pharmacyclics, Inc., priority 2006, dated 2015).)
